{
  "source": "ChEMBL document CHEMBL6096703",
  "about": "(J Med Chem, 2025)",
  "assay": "Selectivity ratio of IC50 for inhibition of PARP2 (unknown origin) in PARP1 knockout human A549 cells to IC50 for inhibition of PARP1 (unknown origin) in PARP2 knockout human A549 cells",
  "data": [
    {"molecule": "CCc1cc2ncc(CN3CC=C(c4ccc(C#N)cn4)CC3)cc2[nH]c1=O", "values": [
      {"measurement": "Ratio IC50", "result": 5000}
    ]}
  ]
}
